Results on one molecule are retold here after US8211935B2, “Heterocyclic derivatives for modulation of calcium channels” (Vertex Pharmaceuticals Incorporated, priority 2004, dated 2012).

This assay has as its target CaV2.2 (Homo sapiens, UniProt Q00975). Put plainly: VIPR optical membrane potential assay with electrical stimulation. To be noted: Table 3, biological assay data.

The IC50 is the point on the concentration scale where inhibition reaches its midpoint. Lower therefore signals greater potency in that assay. The molecule `CCCCN(C)C(=O)c1oc2ccc(S(=O)(=O)N3CCCCCC3)cc2c1C` registered an IC50 of less than 5 µM.
